One compound from ChEMBL document CHEMBL1811860, “Synthesis and inhibitory activity of sialic acid derivatives targeted at viral sialate-O-acetylesterases” (Eur J Med Chem, 2011) can be followed below.

The nature of this assay: Inhibition of Influenza C virus C/JJ/50 9-SOAE expressed in Sf9 cells assessed as inhibition of hydrolysis of pNPA at 0.5 mM.

One may read the inhibition as the change of the read-out against control, counted positive when it falls. As to `C=CCO[C@]1(C(=O)O)C[C@H](O)[C@@H](NC(C)=O)[C@H]([C@H](O)[C@H](O)COC)O1`, the inhibition was 7.01%.
